Reference: publication PMC11345828 (Journal of Medicinal Chemistry, 2024)

Legend:
[1] = system: NCI-H1048 SCLC xenograft
[2] = system: NCI-H929 cell line-derived MM xenograft; experiment: NCI-H929 subcutaneous multiple myeloma xenograft model; format: in vivo, mouse; settings: single dose IV
Procedure: Caspase-Glo 3/7 Assay (PROMEGA #G8090) was performed according to manufacturer’s instructions using 200 ng of sample lysate in a total volume of 100 μL per well. 100 μL of the GLO reagent were added, mixed, and incubated for 90 min at room temperature. The plate was measured on an EnSpireTM Plate reader (luminescence, 0.1s).
Female BomTac:NMRI-Foxn1nu mice and CB17/Icr-Prkdc(scid)/IcrCrl and were obtained from Taconic Denmark at an age of 6–8 weeks. After arrival of the local animal facility at Boehringer Ingelheim RCV GmbH & Co KG mice were allowed to adjust to housing conditions at least for 5 days before the start of the experiment. Mice were group-housed under pathogen-free and controlled environmental conditions and handled according to the institutional, governmental and European Union guidelines (Austrian Animal Protection Laws, GV-SOLAS and FELASA guidelines). Animal studies were approved by the internal ethics committee and the local governmental committee. To establish subcutaneous tumors mice were injected with 5 × 10^6 A427cells in Matrigel (CB17/Icr-Prkdc(scid)/IcrCrl), 1 × 10^6 NCI-H1048 cells in Matrigel (BomTac:NMRI-Foxn1nu and 5 × 10^6 NCI-H929 cells in Matrigel (CB17/Icr-Prkdc(scid)/IcrCrl). Tumor diameters were measured with a caliper three times a week. The volume of each tumor [in mm^3] was calculated according to the formula “tumor volume = length × diameter^2 × π/6.” To monitor side effects of treatment, mice were inspected daily for abnormalities and body weight was determined three times per week. Animals were sacrificed when the tumors reached a size of 1500 mm^3. […] Tumors were reported as regressing when the tumor volume at a given day was below the tumor volume at treatment start.

[3] = system: A427 cell line-derived NSCLC xenograft; experiment: A427 NSCLC subcutaneous xenograft model; format: in vivo, mouse; settings: 26 at 60 mg/kg q7d IV, single agent
Procedure: After fixation, tumor samples were embedded in paraffin blocks. Two-μm thick sections of each FFPE-block were prepared on a microtome, placed on glass slides and dewaxed. H&E staining was performed using Papanicolaous Solution 1a Harris′ Hematoxylin solution (Merck) and Shandon Eosin Y aqueous (Thermo) on the Gemini stainer (Thermo). […] Analysis was performed using HALO image analysis software 2.1 (Indica Laboratories). Quantification of Ki67 positivity was performed using multiplex IHC module with integrated AI based nucleus detection and a threshold set for positive nuclei was used. Viable tumor area was calculated from H&E staining using AI based classifier Densenet V2.
Female BomTac:NMRI-Foxn1nu mice and CB17/Icr-Prkdc(scid)/IcrCrl and were obtained from Taconic Denmark at an age of 6–8 weeks. After arrival of the local animal facility at Boehringer Ingelheim RCV GmbH & Co KG mice were allowed to adjust to housing conditions at least for 5 days before the start of the experiment. Mice were group-housed under pathogen-free and controlled environmental conditions and handled according to the institutional, governmental and European Union guidelines (Austrian Animal Protection Laws, GV-SOLAS and FELASA guidelines). Animal studies were approved by the internal ethics committee and the local governmental committee. […]

[4] = system: MV-4-11 cells; settings: IP, 75 mg/kg QDx21; cited from earlier work
[5] = system: NCI-H929 cell line
Procedure: NCI-H1048 were cultured in custom medium prepared by PanBioTech containing DMEM/F12 + 5% fetal calf serum, 0.005 mg/mL insulin, 0.01 mg/mL transferrin, 30 nM sodium selenite, 10 nM hydrocortisone, 10 nM β-estradiol and […] 2 mM L-glutamine.
Suspension cells were plated immediately before compound addition. Adherent cell lines were incubated overnight at 37 °C in a tissue culture incubator prior to compound addition. Compounds were added in triplicates using an HP D300e Digital Dispenser (Hewlett-Packard) or manually at the concentrations indicated and total volumes were normalized using dimethyl sulfoxide (DMSO) backfill, with final DMSO concentration of 0.5%. Control wells were treated with DMSO only.

SMILES: COc1c(OCC2CCOCC2)cc(N2C[C@@H](C)n3c(c(CCCOc4cc(C)c(Cl)c(C)c4)c4ccc(Cl)c(-c5c(C)nc(C)nc5C)c43)C2=O)c2c1cc(C(=O)O)n2C [Compound 26, (R)-7-(7-Chloro-10-(3-(4-chloro-3,5-dimethylphenoxy)propyl)-4-methyl-1-oxo-6-(2,4,6-trimethylpyrimidin-5-yl)-3,4-dihydropyrazino[1,2-a]indol-2(1H)-yl)-4-methoxy-1-methyl-5-((tetrahydro-2H-pyran-4-yl)methoxy)-1H-indole-2-carboxylic Acid]
- impact on tumor growth in vivo ([1]; 26 alone): no impact on tumor growth
- Tumor regression d16 ([1]; 26 at 60 mg/kg q7d): 0 x/8
- Tumor regressions d21 ([2]; 60 mg/kg): 0 x/8
- tumor regression persisted until day after dosing start ([2]; 60 mg/kg): 7 days
- Tumor regressions d21 ([2]; 80 mg/kg): 6 x/8
- tumor regression persisted until day ([2]; 80 mg/kg): 15 days
- Tumor regressions d21 [3]: 1 x/8
- tumor outgrowth occurring around day after treatment start [3]: ~7 days

SMILES: Cc1cc(OCCCc2c3n(c4c(-c5c(C)nn(C)c5C)c(Cl)ccc24)[C@H](C)CN(c2cn(C)c4ccc(C(=O)O)cc24)C3=O)cc(C)c1Cl [Compound 9]
- tumor burden in blood, bone marrow, and spleen [4]: nearly eliminated MV-4-11 cells

SMILES: COc1ccc(N2C[C@@H](C)n3c(c(CCCOc4cc(C)c(Cl)c(C)c4)c4ccc(Cl)c(-c5c(C)nn(C)c5C)c43)C2=O)c2c1cc(C(=O)O)n2C [Compound 13, (R)-7-(7-Chloro-10-(3-(4-chloro-3,5-dimethylphenoxy)propyl)-4-methyl-1-oxo-6-(1,3,5-trimethyl-1H-pyrazol-4-yl)-3,4-dihydropyrazino[1,2-a]indol-2(1H)-yl)-4-methoxy-1-methyl-1H-indole-2-carboxylic Acid]
- improvement in NCI-H929 GI50 relative to 10 [5]: ~2 fold
